The record followed here is patent publication US8906911B2, “Chemokine receptor antagonists” (AbbVie Inc., priority 2012, dated 2014).

Sequences of proteins named here, by UniProt entry; tags and fusion partners are left off. A change or cut given only in a name is not applied to a line headed by its entry. A line that says so, or that is headed by a name, gives the form on record, which may keep a tag or linker.
UniProt P41597, other isoform, or with tags, fused parts or gaps: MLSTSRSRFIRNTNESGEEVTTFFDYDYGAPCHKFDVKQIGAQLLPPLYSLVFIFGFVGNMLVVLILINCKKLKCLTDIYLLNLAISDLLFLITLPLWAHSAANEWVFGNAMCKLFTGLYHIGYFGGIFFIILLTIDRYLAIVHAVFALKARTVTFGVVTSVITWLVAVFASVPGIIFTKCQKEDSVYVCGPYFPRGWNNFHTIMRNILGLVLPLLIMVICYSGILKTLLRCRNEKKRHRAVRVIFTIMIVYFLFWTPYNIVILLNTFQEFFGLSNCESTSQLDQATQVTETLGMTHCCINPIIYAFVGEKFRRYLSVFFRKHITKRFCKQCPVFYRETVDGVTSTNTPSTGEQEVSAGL
UniProt O55193: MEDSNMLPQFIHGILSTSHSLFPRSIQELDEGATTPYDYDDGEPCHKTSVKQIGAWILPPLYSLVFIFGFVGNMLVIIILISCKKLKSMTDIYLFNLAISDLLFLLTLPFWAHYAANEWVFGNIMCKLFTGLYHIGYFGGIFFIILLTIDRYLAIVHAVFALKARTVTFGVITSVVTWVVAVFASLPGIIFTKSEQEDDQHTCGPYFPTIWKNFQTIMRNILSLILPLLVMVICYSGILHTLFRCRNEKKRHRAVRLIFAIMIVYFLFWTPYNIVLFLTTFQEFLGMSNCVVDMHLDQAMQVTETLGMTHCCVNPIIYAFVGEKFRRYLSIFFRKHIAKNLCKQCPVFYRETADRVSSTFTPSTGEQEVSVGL

Assay [1] deals with T1, human CCR2B (Homo sapiens (Human), UniProt P41597). Description: Inhibition of native agonist (human MCP-1)-induced intracellular calcium release, calcium flux assay in CHO cells expressing human CCR2B and Gα16. It is filed as cell-based. The settings on record: for IC50: read-out: hCCR2B IC50. From the text: (§1) CHO cells expressing human CCR2B were generated as follows. cDNA for human CCR2B (cloned from human blood) was cloned into plasmid pcDNA3.1 (from Invitrogen). The resulting plasmids were separately transfected into CHO cells expressing human Gα16 (from Molecular Devices). […] CHO cells expressing rat CCR2 were generated as follows. cDNA for rat CCR2 (cloned from rat macrophage) was cloned into plasmid pEF-flag (from Chinese Academy of Science). The resulting plasmids were transfected into CHO cells expressing human Gα16 (from […]).
Inhibition of Native Agonist-Induced Intracellular Calcium Release in Cells Expressing hCCR2B or rCCR2
Calcium flux assays were performed in CHO cells expressing human CCR2B and Gα16 coupling protein, or rat CCR2 and Gα16 coupling protein. All compounds were dissolved in DMSO and assays run at a final DMSO concentration of 0.25% (v/v). Human MCP-1 was purchased from PeproTech and used at a final assay concentration of 2 nM, while rat MCP-1 was purchased from R&D and used at a final assay concentration of 4 nM. Assays with cells expressing human CCR2B were performed with human MCP-1, while assays with cells expressing rat CCR2 were performed with rat MCP-1.
Briefly, cells were cultured overnight in a microtiter plate at 8000 per well. The next day, the resultant adherent cells were incubated in assay buffer (20 mM HEPES, pH 7.4, 0.1% bovine serum albumin, and 2.5 mM probenocid in Hank's Buffered Saline Solution) containing Calcium 4 dye (Molecular Probes) at 37° C. for 60 minutes. Calcium flux assays were performed on a FLIPR^Tetra instrument (Molecular Devices) by adding compound to the cells followed by addition of native agonist and measuring the change in fluorescence as a function of time. Maximal and minimal values for fluorescence were determined using native agonist (2 nM MCP-1) for human or rat CCR2, or buffer addition, respectively. Fluorescence values were used to calculate the percent inhibition at a given compound concentration and the data fit to a sigmoidal curve in a semi-log plot to determine IC50 values. The Kb value is calculated as Kb=IC50/(1+[agonist]/EC50), where [agonist] is the concentration of agonist used and EC50 is the agonist potency determined in the previous experiments. Mean Kb values and IC50 of the compounds assayed are reported in Table 2 and Table 3 respectively.
In general terms: A change in cytosolic calcium serves as a functional read-out for many receptors and channels.

The target of a further assay is rat CCR2 (Rattus norvegicus (Rat), UniProt O55193). Description: Inhibition of native agonist (rat MCP-1)-induced intracellular calcium release, calcium flux assay in CHO cells expressing rat CCR2 and Gα16. It is filed as cell-based.
Description: as §1
Inhibition of Native Agonist-Induced Intracellular Calcium Release in Cells Expressing hCCR2B or rCCR2 […]
Briefly, cells were cultured overnight in a microtiter plate at 8000 per well. […] Calcium flux assays were performed on a FLIPR^Tetra instrument (Molecular Devices) by adding compound to the cells followed by addition of native agonist and measuring the change in fluorescence as a function of time. Maximal and minimal values for fluorescence were determined using native agonist (2 nM MCP-1) for human or rat CCR2, or buffer addition, respectively. Fluorescence values were used to calculate the percent inhibition at a given compound concentration and the data fit to a sigmoidal curve in a semi-log plot to determine IC50 values. […]

Assay [2] deals with T1, human CCR2B. The assay can be described thus: Inhibition of [125I]-labeled MCP-1 binding to hCCR2B (radioligand binding in CHO cells). To be noted: mean Ki; [125I]-MCP-1 50 pM; CHO cells expressing human CCR2B and Gα16.
Description: as §1
Inhibition of [^125I]-Labeled MCP-1 Binding to hCCR2B
Radioligand binding assays were performed in CHO cells expressing human CCR2B and Gα16 coupling protein. […]
Compounds were serially diluted in DMSO before diluting into assay buffer (25 mM HEPES, pH 7.4, 5 mM MgCl2, 1 mM CaCl2, 0.5% BSA) with cryo preserved CHO cells expressing human CCR2B and the Gα16 coupling protein (30×10^3/well) and [^125I]-MCP-1 (50 pM). […] Membrane was counted on Microbeta counter where background binding was determined by the presence of 100 nM MCP-1 and control total binding was determined by addition of DMSO in place of the test compound. The radioactivity values (cpm) were used to calculate the percent inhibition at a given compound concentration and the data fit to a sigmoidal curve in a semi-log plot to determine IC50 values. The corresponding Ki value is calculated as follows: […]

Consider `CO[C@@H]1COCC[C@@H]1N[C@@H]1C[C@H]2CCC[C@@]2(C(=O)N2C[C@@H]3C[C@H]2CN3c2cc(C(F)(F)F)cc(C)n2)C1` [Example 11, 1,5-anhydro-2,3-dideoxy-4-O-methyl-3-{[(2R,3aR,6aR)-3a-({(1S,4S)-5-[6-methyl-4-(trifluoromethyl)pyridin-2-yl]-2,5-diazabicyclo[2.2.1]hept-2-yl}carbonyl)octahydropentalen-2-yl]amino}-D-erythro-pentitol], for which, at human CCR2B [1], the Kb was determined as 359 nM and the IC50 (in general, the concentration needed to halve the response being measured) is 1470 nM.

With `CO[C@@H]1COCC[C@@H]1N[C@@H]1C[C@H]2CCC[C@@]2(C(=O)N2C[C@@H]3C[C@H]2CN3c2nccc(C(F)(F)F)n2)C1` [Example 12, 1,5-anhydro-2,3-dideoxy-4-O-methyl-3-{[(2R,3aR,6aR)-3a-({(1S,4S)-5-[4-(trifluoromethyl)pyrimidin-2-yl]-2,5-diazabicyclo[2.2.1]hept-2-yl}carbonyl)octahydropentalen-2-yl]amino}-D-erythro-pentitol], the Kb is 11 nM at rat CCR2 and 48 nM at human CCR2B [1]. The Ki (in general, the dissociation constant of the complex between target and ligand, obtained from inhibition or displacement) at human CCR2B [2] came to 261 nM. Besides, on human CCR2B [1], the IC50 amounted to 194 nM.

For the compound `CO[C@@H]1COCC[C@@H]1N[C@@H]1C[C@H]2CCC[C@@]2(C(=O)N2C[C@@H]3C[C@H]2CN3c2cc(C(F)(F)F)ncn2)C1` [Example 13], on rat CCR2, the Kb turned out to be 24 nM. The compound further had a Ki on human CCR2B [2] of 593 nM. In addition, at human CCR2B [1], the Kb is 129 nM and the IC50 worked out at 525 nM.
